Results from ChEMBL document CHEMBL4428025 (J Med Chem, 2016).

Key:
Nociceptin receptor [1] = molecular target: T1, Nociceptin receptor (Homo sapiens, UniProt P41146); assay: Antagonist activity at human nociceptin opioid receptor expressed in CHO cell membranes after 2.5 hrs by GTPgamma(35)S binding assay
Mu-type opioid receptor [2] = molecular target: T2, Mu-type opioid receptor (Homo sapiens, UniProt P35372); assay: Displacement of [3H]DAMGO from recombinant human mu opioid receptor expressed in CHO cell membranes after 60 mins by scintillation counting method
Nociceptin receptor [3] = molecular target: T1, Nociceptin receptor; assay: Displacement of [3H]nociceptin from recombinant human nociceptin opioid receptor expressed in CHO cell membranes after 60 mins by scintillation counting method
Nociceptin receptor [4] = molecular target: T1, Nociceptin receptor; assay: Displacement of [3H]nociceptin/orphanin FQ from recombinant human nociceptin opioid receptor expressed in HEK293 cell membranes after 60 mins
Mu-type opioid receptor [5] = molecular target: T2, Mu-type opioid receptor; assay: Displacement of [3H]DAMGO from recombinant human mu opioid receptor expressed in CHO cell membranes after 60 mins
Nociceptin receptor [6] = molecular target: T1, Nociceptin receptor; assay: Agonist activity at human nociceptin opioid receptor expressed in HEK293 cell membranes by GTPgamma(35)S binding assay
Mu-type opioid receptor [7] = molecular target: T2, Mu-type opioid receptor; assay: Displacement of [3H]DAMGO from recombinant human mu opioid receptor expressed in CHO cell membranes
Nociceptin receptor [8] = molecular target: T1, Nociceptin receptor; assay: Displacement of [3H]nociceptin/orphanin FQ from recombinant human nociceptin opioid receptor expressed in CHO cell membranes
Nociceptin receptor [9] = molecular target: T1, Nociceptin receptor; assay: Agonist activity at human nociceptin opioid receptor expressed in CHO cell membranes after 60 mins by GTPgamma(35)S binding assay
Nociceptin receptor [10] = molecular target: T1, Nociceptin receptor; assay: Displacement of [125I][Tyr14]nociceptin/orphanin FQ from human nociceptin opioid receptor expressed in CHO cell membranes after 1 hr by microplate scintillation counting method

CCn1c(=O)n([C@@H]2CCN(C3CCCCCCC3)C[C@H]2CO)c2ccccc21
IC50 (Nociceptin receptor [1]): 5.3 nM
Ki (Mu-type opioid receptor [2]): 31 nM
Ki (Nociceptin receptor [3]): 2 nM

CNC(=O)Cn1c(=O)n(C2CCN([C@H]3Cc4cccc5cccc3c45)CC2)c2ccccc21
Ki (Nociceptin receptor [4]): 0.21 nM
Ki (Mu-type opioid receptor [5]): 35 nM
EC50 (Nociceptin receptor [6]): 0.3 nM

O=C1Cc2ccccc2N1C1CCN([C@@H]2CC[C@H]3CCCc4cccc2c43)CC1
Ki (Mu-type opioid receptor [7]): 80 nM
Ki (Nociceptin receptor [8]): 11 nM
EC50 (Nociceptin receptor [9]): 46 nM

O=c1n(CC[18F])c2ccccc2n1[C@H]1CCN(C[C@H]2CCCCC23CC3)C[C@@H]1CO
IC50 (Nociceptin receptor [10]): 0.63 nM
